# Molecular target: Cyclin-C/Cyclin-dependent kinase 19 (Homo sapiens, UniProt Q9BWU1)
# Sequences of proteins named here, by UniProt entry; tags and fusion partners are left off. A change or cut given only in a name is not applied to a line headed by its entry.
# UniProt Q9BWU1: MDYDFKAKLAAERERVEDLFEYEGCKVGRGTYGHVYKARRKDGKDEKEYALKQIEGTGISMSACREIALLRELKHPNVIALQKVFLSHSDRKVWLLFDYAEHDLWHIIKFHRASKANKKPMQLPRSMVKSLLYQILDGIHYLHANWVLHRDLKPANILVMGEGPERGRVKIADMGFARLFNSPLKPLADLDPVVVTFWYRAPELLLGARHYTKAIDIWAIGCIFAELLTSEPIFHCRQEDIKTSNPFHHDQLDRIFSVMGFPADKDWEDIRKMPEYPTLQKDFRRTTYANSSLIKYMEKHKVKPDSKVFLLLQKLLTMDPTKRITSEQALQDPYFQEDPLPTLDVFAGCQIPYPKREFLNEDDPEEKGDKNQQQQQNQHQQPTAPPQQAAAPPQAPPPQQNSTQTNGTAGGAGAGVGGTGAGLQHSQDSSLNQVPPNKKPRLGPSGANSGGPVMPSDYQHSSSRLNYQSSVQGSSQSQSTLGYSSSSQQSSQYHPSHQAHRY
# Assay: Binding affinity to recombinant human CDK19/cyclinC assessed as dissociation constant by TR FRET based assay
# Assay type: protein-complex assay
smiles,measurement,value
CN1CCN(C(=O)c2ccc3cc(CCNc4ncnc5ccc(C#N)cc45)ccc3c2)CC1 [SENEXIN B],Kd,2.95 nM

# Source: ChEMBL document CHEMBL5046270, “A Selective and Orally Bioavailable Quinoline-6-Carbonitrile-Based Inhibitor of CDK8/19 Mediator Kinase with Tumor-Enriched Pharmacokinetics” (J Med Chem, 2022)
